## Binding of CDR-mutated scFvs to a peptide of the spike HR2 region

Target peptide (SARS-CoV-2 spike, HR2 region): PDVDLGDISGINAS

Each scFv is VH, a 15-residue (Gly4Ser)3 linker, VL, as in the parent Ab-14, and differs from it in the CDRs of the light chain only.
VH: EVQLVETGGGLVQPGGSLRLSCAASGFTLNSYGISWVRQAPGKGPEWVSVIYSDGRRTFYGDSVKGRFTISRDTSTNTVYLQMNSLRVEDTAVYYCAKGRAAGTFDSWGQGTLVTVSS
VL: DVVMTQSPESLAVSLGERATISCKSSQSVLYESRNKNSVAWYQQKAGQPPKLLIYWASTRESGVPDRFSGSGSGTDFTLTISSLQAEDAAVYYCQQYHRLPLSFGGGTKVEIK

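Phage display of a naive human antibody library on the peptide gave the parent. AAYL50 was designed without a model: most single CDR substitutions and a random sample of double and triple ones. In AlphaSeq, yeast of one mating type display the scFv and yeast of the other type display the target. The frequency of each diploid, read from paired DNA barcodes, reflects how well the two displayed proteins bind. Scores were corrected for input abundance and mapped to Kd with protein pairs of known affinity run in the same pool. Each pool was mated in three replicate cultures.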

Variants are written as CDR1, CDR2 and CDR3 of the light chain (limits as in the source). Parent: KSSQSVLYESRNKNSVA, WASTRES, QQYHRLPLS. Scale: log10 of Kd in nM, estimated from mating counts; low values are strong binders. The mean shown is taken over the replicates in which the pair was detected. A pair that was not seen in any replicate is written "nd"; this usually means weak binding, but a binder can also be missed.

{"CDR-L1": "KSSQSVLYESRNCNSSA", "CDR-L2": "WASTRES", "CDR-L3": "QQYHRLPLA", "mean, log10 nM": "2.08", "detected": "3 of 3"}
{"CDR-L1": "KSSQSPLYESRNKNFVA", "CDR-L2": "WASTHES", "CDR-L3": "QQYHRLPLS", "mean, log10 nM": "6.02", "detected": "1 of 3"}
{"CDR-L1": "KSSLSVLYEHRNVNSVA", "CDR-L2": "WASTRES", "CDR-L3": "QQYHRLPLS", "mean, log10 nM": "4.13", "detected": "3 of 3"}
{"CDR-L1": "KSSQSVLYESRNKNSVA", "CDR-L2": "WASTRSF", "CDR-L3": "QQYSRLPLS", "mean, log10 nM": "1.89", "detected": "3 of 3"}
{"CDR-L1": "KSSQSVLYESRNKNSVA", "CDR-L2": "WASTRES", "CDR-L3": "QQYHRLMNR", "mean, log10 nM": "2.01", "detected": "1 of 3"}
{"CDR-L1": "KSSQSVLYESANKNSLA", "CDR-L2": "WASTRES", "CDR-L3": "QQYHRIPLS", "mean, log10 nM": "1.30", "detected": "3 of 3"}
{"CDR-L1": "ESSQSVLYESRNLNSVS", "CDR-L2": "WASTRES", "CDR-L3": "QQYHRLPLS", "mean, log10 nM": "6.10", "detected": "1 of 3"}
{"CDR-L1": "KSSQSVLYESRNKNEVA", "CDR-L2": "WASTRES", "CDR-L3": "QDYHRLPLS", "mean, log10 nM": "2.55", "detected": "3 of 3"}
{"CDR-L1": "GSSQSVLYESRNKNLVA", "CDR-L2": "GASTRES", "CDR-L3": "QQYHRLPLS", "mean, log10 nM": "1.35", "detected": "3 of 3"}
{"CDR-L1": "KSSQSCLYESRNKNSVA", "CDR-L2": "WASTRVS", "CDR-L3": "QQYHRLPLQ", "mean, log10 nM": "2.62", "detected": "1 of 3"}
{"CDR-L1": "KSSQSVLDESRNCNSVA", "CDR-L2": "WASTVES", "CDR-L3": "QQYHRLPLS", "mean, log10 nM": "0.97", "detected": "3 of 3"}
{"CDR-L1": "KSSQSLLYESRNKNSVA", "CDR-L2": "WAFTRES", "CDR-L3": "QQYHRLPLS", "mean, log10 nM": "6.46", "detected": "1 of 3"}
{"CDR-L1": "KFSQSVLYECRNKNSVA", "CDR-L2": "WASTRES", "CDR-L3": "QQQHRLPLS", "mean, log10 nM": "4.70", "detected": "3 of 3"}
{"CDR-L1": "KSSISVLYESRNKNQVA", "CDR-L2": "WASTRNS", "CDR-L3": "QQYHRLPLS", "mean, log10 nM": "3.17", "detected": "3 of 3"}
{"CDR-L1": "KSSQSVLYESRNKNKVD", "CDR-L2": "WASTMES", "CDR-L3": "QQYHRLPLS", "mean, log10 nM": "nd", "detected": "0 of 3"}
{"CDR-L1": "DSSQSVLYESRNKNSEA", "CDR-L2": "WASTRES", "CDR-L3": "QQYHRLTLS", "mean, log10 nM": "nd", "detected": "0 of 3"}
{"CDR-L1": "KSSQSVLYESRWKNSVA", "CDR-L2": "DAHTRES", "CDR-L3": "QQYHRLPLS", "mean, log10 nM": "0.17", "detected": "3 of 3"}
{"CDR-L1": "KSSRSVLYENRNKNSVA", "CDR-L2": "WASTRES", "CDR-L3": "QQYHQLPLS", "mean, log10 nM": "1.73", "detected": "3 of 3"}
{"CDR-L1": "KSSQSLLYESRNKNSVA", "CDR-L2": "LLSTRES", "CDR-L3": "QQYHRLPLS", "mean, log10 nM": "2.60", "detected": "2 of 3"}
{"CDR-L1": "KSSQSVLYVSRNKLSIA", "CDR-L2": "WASTRES", "CDR-L3": "QQYHRLPLS", "mean, log10 nM": "nd", "detected": "0 of 3"}
{"CDR-L1": "KSSQSALYESRNKNQVA", "CDR-L2": "WASTRES", "CDR-L3": "QQYHRLPLS", "mean, log10 nM": "2.24", "detected": "3 of 3"}
{"CDR-L1": "KSSQSVLRFSRNKNSVA", "CDR-L2": "WASTRES", "CDR-L3": "MQYHRLPLS", "mean, log10 nM": "3.26", "detected": "1 of 3"}
{"CDR-L1": "KSSQSVLYECRNKNSVA", "CDR-L2": "WASGDES", "CDR-L3": "QQYHRLPLS", "mean, log10 nM": "3.46", "detected": "2 of 3"}
{"CDR-L1": "KSSQSVLYESRNKNSVA", "CDR-L2": "WAVTFIS", "CDR-L3": "QQYHRLPLS", "mean, log10 nM": "nd", "detected": "0 of 3"}

Empty control strains, which show no peptide, gave a signal in 18% of pairings with library AAYL50; the median was 4.19 and 95% of these signals were weaker than 2.99. No background was subtracted.

Source: Engelhart et al. 2022 (doi:10.1038/s41597-022-01779-4), MIT Lincoln Laboratory and A-Alpha Bio; data file from the FLAb repository.